# Ab-14 light chain CDR variants: yeast mating affinities

Values reported by Engelhart et al. 2022, doi:10.1038/s41597-022-01779-4 (FLAb copy).

All variants were tested on one target, the spike HR2 peptide PDVDLGDISGINAS (SARS-CoV-2).

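The starting antibody came from a phage panning campaign against this peptide. AAYL50 was designed without a model: most single CDR substitutions and a random sample of double and triple ones. The scFvs were displayed on barcoded MATa yeast, the peptide on MATalpha yeast. Binding brings cells together so that they mate, and sequencing counts the barcode pairs among the diploids. Scores were corrected for input abundance and mapped to Kd with protein pairs of known affinity run in the same pool. Each pool was mated in three replicate cultures.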

Each scFv is VH, a (GGGGS)3 linker, VL, as in the parent Ab-14, and differs from it in the CDRs of the light chain only.
VH: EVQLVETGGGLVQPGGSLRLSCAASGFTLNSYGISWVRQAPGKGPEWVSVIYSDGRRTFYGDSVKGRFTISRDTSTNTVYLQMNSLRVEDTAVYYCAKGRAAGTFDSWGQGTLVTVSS
VL: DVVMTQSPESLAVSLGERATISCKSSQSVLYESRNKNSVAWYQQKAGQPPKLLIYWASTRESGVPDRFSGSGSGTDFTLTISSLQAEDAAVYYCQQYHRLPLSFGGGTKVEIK

Changes read parent residue, position, new residue, counted from the first residue of the VL shown.
All variants listed here change V39 of the VL, counted from its first residue.
The Kd shown is the geometric mean over detected replicates; a lower Kd is a better binder.
"nd" marks a missing value. The strain was present, yet no cells mated with the target were sequenced in any replicate, which points to weak or no binding.

For S26M V39K A40F, the assay gave 1.1 µM (1 of 3 replicates). For V39G, the assay gave 15 µM (1 of 3 replicates). Variant V29C V39F S62F showed nd (0 of 3 replicates). Variant K24S Q27K V39H showed nd (0 of 3 replicates). For K24H V39Q, the assay gave nd (0 of 3 replicates). With Q27P V39N S103K the result was nd (0 of 3 replicates). Variant V29G Y31P V39F showed 350 nM (3 of 3 replicates). With S26A V39M the result was 5.8 nM (3 of 3 replicates). For K24C N35W V39F, the assay gave nd (0 of 3 replicates).

For V39P T59W R60A, the assay gave 6.1 µM (1 of 3 replicates). With V39C W56G S103N the result was 1.6 nM (3 of 3 replicates). Variant S33Y V39D R60F showed 4.7 µM (1 of 3 replicates). Variant S28K V39H S58K showed nd (0 of 3 replicates). For L30Q V39W A40P, the assay gave nd (0 of 3 replicates). Variant E32D V39N gave nd (0 of 3 replicates). For V39K R60M S62C, the assay gave nd (0 of 3 replicates). Variant V39N A40L R99K gave nd (0 of 3 replicates). With V39C T59S H98S the result was 20 µM (1 of 3 replicates).

Variant L30Q V39F R99F gave nd (0 of 3 replicates). For K36C V39S S103A, the assay gave 120 nM (3 of 3 replicates). For L30A V39W Y97P, the assay gave 24 µM (2 of 3 replicates). With Y31E V39D the result was 81 µM (2 of 3 replicates). Variant Q27L V39C Q96M gave nd (0 of 3 replicates). Variant E32C V39S Y97F gave 82 µM (1 of 3 replicates). Variant K24P V39E H98L showed nd (0 of 3 replicates). Variant V39S A57S P101D gave nd (0 of 3 replicates). Variant V29A V39E A40T showed nd (0 of 3 replicates).

Variant V39W R99W gave 77 µM (2 of 3 replicates). Variant Y31M V39R W56R showed 240 µM (1 of 3 replicates). Variant V39I S62H P101T showed nd (0 of 3 replicates). Variant K36Q V39Q W56Q gave 78 µM (1 of 3 replicates). For V29D V39L S58T, the assay gave 35 nM (3 of 3 replicates). Variant K24R Y31I V39E gave nd (0 of 3 replicates). Variant V39Q S58T E61D showed 2.7 µM (2 of 3 replicates). With Q27N V39E E61F the result was 39 µM (1 of 3 replicates). Variant Q27D V39C gave 9.8 µM (2 of 3 replicates).

With R34E V39L R60E the result was nd (0 of 3 replicates). Variant V39K S62W R99G showed nd (0 of 3 replicates). Variant V39W S62V H98W showed nd (0 of 3 replicates). For V39R E61Q S103Y, the assay gave nd (0 of 3 replicates). Variant Y31P V39A S103N showed nd (0 of 3 replicates). Variant N37W V39K Q96Y showed nd (0 of 3 replicates). With V39R W56S Q96K the result was nd (0 of 3 replicates). For V29P V39L E61C, the assay gave 50 nM (3 of 3 replicates). Variant S28Q V39G Q95Y gave nd (0 of 3 replicates).

Excerpt, the final 7 entries:

| changes | Kd | replicates with signal |
|---|---|---|
| V39W S62V H98W | nd | 0/3 |
| V39R E61Q S103Y | nd | 0/3 |
| Y31P V39A S103N | nd | 0/3 |
| N37W V39K Q96Y | nd | 0/3 |
| V39R W56S Q96K | nd | 0/3 |
| V29P V39L E61C | 50 nM | 3/3 |
| S28Q V39G Q95Y | nd | 0/3 |

Parent in this assay: reference entry 4.4 nM, copy in this library 48 nM.
Background: pairings of library AAYL50 with three empty control strains gave a value in 18% of cases (median 15 µM, 5th percentile 970 nM). Values in that range, when seen in few replicates, are hard to tell from nonspecific mating.